Experimental data from PubChem BioAssay AID593 (National Center for Advancing Translational Sciences (NCATS), 2007).
The entries are a selection whose mix differs from that of the whole data set. Some results for these compounds are left out of this collection, so the calls shown say nothing about other tests. Records with an inconclusive call do not appear. Calls of active or inactive are those of the source. Cut-off read from the data, not from the text of the source: active = max fluorescein-equivalent concentration above about 10 nM; inconclusive = between about 1.1 nM and that limit; inactive = weaker than that.

Assay: qHTS Assay for Spectroscopic Profiling in Fluorescein Spectral Region
Conditions: Compound autofluorescence, 480/540 nm, fluorescein-equivalent
Source text: NIH Molecular Libraries Screening Centers Network [MLSCN]
NIH Chemical Genomics Center [NCGC]
Occasionally, the artifactual effect may originate from the compound's own spectral or other biophysical properties which generally tend to track its assay concentration. Pre-screening/profiling the library with respect to the compounds' spectral properties should help one exclude false positives early on. While the most informative fluorescent profiling data set is obtained by performing a full excitation and emission scan of each well by using a monochromator-based plate reader, such an approach is practical only on a very limited scale as scanning each well requires long time. An alternative approach, applied here, is to perform plate reader scans using selected excitation and emission wavelength pairs to generate a multidimensional relational database that correlates compound concentration and the respective relative fluorescence intensity at a given wavelength set. A standard curve of fluorescein present on each plate as six-point concentration series, was used to compute a normalized fluorescence response, termed dye-equivalent concentration, for each compound at each concentration.
NCGC Assay Protocol Summary:
100 mM Tris buffer, pH 8.0
The wells in columns 1 through 4 of a Kalypsys polypropylene 1536-well compound plate were filled with standard solutions of fluorophore corresponding to the spectral region of interest. Solutions of Fluorescein were placed in the following wells: Q1, R1: 3 mM, Q2, R2: 300 uM, Q3, R3: 30 uM, Q4, R4: zero (DMSO), S1, T1: 3 uM, S2, T2: 900 nM, S3, T3: 300 nM, S4, T4: zero (DMSO).
Six uL of buffer were dispensed to 1536-well Greiner black plates. Compounds and dye standards (23 nL) were transferred via Kalypsys PinTool. The plates were incubated for 15 min at room temperature, and then read on ViewLux (Perkin-Elmer) High-throughput CCD imager using 480 nm and 540 nm excitation and emission filter set.
Keywords: NIH Roadmap, MLSCN, MLI, MLSMR, qHTS, NCGC, Fluorescein, Fluorescent Profiling.

SMILES	outcome
CN(C)c1cccc(C(=O)NCC2(N(C)C)CCCCC2)c1	inactive
CN1CC[C@H](OC(=O)[C@](O)(c2ccccc2)C2CCCC2)C1	inactive
CN1CCC[C@H](OC(=O)[C@](O)(c2ccccc2)C2CCCC2)C1	inactive
